This is an account of results in IntAct's records for PubMed 21685944.

Sequences and labels used below:
B1: Beta-arrestin-1 (Rattus norvegicus (Rat)), P29066 (parent)
chain: MGDKGTRVFKKASPNGKLTVYLGKRDFVDHIDLVDPVDGVVLVDPEYLKERRVYVTLTCAFRYGREDLDVLGLTFRKDLFVANVQSFPPAPEDKKPLTRLQERLIKKLGEHAYPFTFEIPPNLPCSVTLQPGPEDTGKACGVDYEVKAFCAENLEEKIHKRNSVRLVIRKVQYAPERPGPQPTAETTRQFLMSDKPLHLEASLDKEIYYHGEPISVNVHVTNNTNKTVKKIKISVRQYADICLFNTAQYKCPVAMEEADDTVAPSSTFCKVYTLTPFLANNREKRGLALDGKLKHEDTNLASSTLLREGANREILGIIVSYKVKVKLVVSRGGLLGDLASSDVAVELPFTLMHPKPKEEPPHREVPESETPVDTNLIELDTNDDDIVFEDFARQRLKGMKDDKDEEDDGTGSPHLNNR

This test covers variants of B1. The conditions noted are these: with hif1a_human HIF1A.
In the case of MGDKGTRVFKKASPNGKLTVYLGKRDFVDHIDLVDPVDGVVLVDPEYLKERRVYVTLTCAFRYGREDLDVLGLTFRKDLFVANVQSFPPAPEDKKPLTRLQERLIKKLGEHAYPFTFEIPPNLPCSVTLQPGPEDTGKACGVDYEVKAFCAENLEEKIHKRNSVRLVIRKVQYAPERPGPQPTAETTRQFLMSDKPLHLEASLDKEIYYHGEPISVNVHVTNNTNKTVKKIKISVRQYADICLFNTAQYKCPVAMEEADDTVAPSSTFCKVYTLTPFLANNREKRGLALDGKLKHEDTNLASSTLLREGANREILGIIVSYKVKVKLVVSRGGLLGDLASSDVAVELPFTLMHPKPKEEPPHREVPESETPVDTNLIELDTNDDDIVFEDFARLRLKGMKDDKDEEDDGTGSPHLNNR [Q394L], the “effect of a mutation on the interaction” value is given as “decreasing interaction strength”.
